Test results taken from publication PMC9386376, “Discovery of spirooxindole-derived small-molecule compounds as novel HDAC/MDM2 dual inhibitors and investigation of their anticancer activity” (Frontiers in Oncology, 2022).

Legend:
HDAC8 = target: T1, HDAC8 (Homo sapiens, UniProt Q9BY41); test: HDAC isoform selectivity, HDAC8; format: biochemical
T1 sequence (Q9BY41 1-377): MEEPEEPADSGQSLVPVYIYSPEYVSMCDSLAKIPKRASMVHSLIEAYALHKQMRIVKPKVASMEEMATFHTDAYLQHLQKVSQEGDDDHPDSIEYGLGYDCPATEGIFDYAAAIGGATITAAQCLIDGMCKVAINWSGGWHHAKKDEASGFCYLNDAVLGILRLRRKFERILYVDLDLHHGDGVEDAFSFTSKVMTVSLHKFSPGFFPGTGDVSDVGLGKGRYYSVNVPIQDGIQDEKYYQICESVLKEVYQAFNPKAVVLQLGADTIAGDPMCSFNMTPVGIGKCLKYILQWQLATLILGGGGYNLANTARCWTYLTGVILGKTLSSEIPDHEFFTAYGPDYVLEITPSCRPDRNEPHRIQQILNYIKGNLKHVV

HDAC10 = target: T2, HDAC10 (Homo sapiens, UniProt Q969S8); test: HDAC isoform selectivity, HDAC10; format: biochemical
T2 sequence (Q969S8 1-669): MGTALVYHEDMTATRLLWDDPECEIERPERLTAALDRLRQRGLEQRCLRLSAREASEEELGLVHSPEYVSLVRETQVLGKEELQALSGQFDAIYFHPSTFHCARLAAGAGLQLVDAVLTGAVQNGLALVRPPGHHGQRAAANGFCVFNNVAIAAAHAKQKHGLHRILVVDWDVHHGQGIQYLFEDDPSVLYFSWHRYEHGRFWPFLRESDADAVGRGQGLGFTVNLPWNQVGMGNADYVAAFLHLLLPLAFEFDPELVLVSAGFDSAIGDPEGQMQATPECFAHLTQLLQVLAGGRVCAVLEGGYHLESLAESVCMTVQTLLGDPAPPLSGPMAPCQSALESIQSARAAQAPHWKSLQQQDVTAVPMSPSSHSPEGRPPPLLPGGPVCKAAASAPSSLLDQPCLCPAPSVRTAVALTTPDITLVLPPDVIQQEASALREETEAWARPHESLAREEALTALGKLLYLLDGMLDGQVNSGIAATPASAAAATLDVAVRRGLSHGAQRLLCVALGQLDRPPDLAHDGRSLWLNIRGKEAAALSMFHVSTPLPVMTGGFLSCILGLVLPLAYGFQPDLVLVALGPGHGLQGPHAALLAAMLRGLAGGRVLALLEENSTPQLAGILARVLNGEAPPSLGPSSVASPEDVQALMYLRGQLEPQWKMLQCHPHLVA

## O=C(CCCCCCC(=O)Nc1ccccc1)NO [SAHA, vorinostat, reference compound]
HDAC8
  IC50: 183 ± 27 nM
HDAC10
  IC50: 379 ± 22 nM
